Antibody variant affinities, Ab-14 heavy chain, assay B

Binding partner: SARS-CoV-2 spike HR2 peptide, sequence PDVDLGDISGINAS.

Each scFv is VH, the linker GGGGSGGGGSGGGGS, VL, as in the parent Ab-14, and differs from it in the CDRs of the heavy chain only.
VH: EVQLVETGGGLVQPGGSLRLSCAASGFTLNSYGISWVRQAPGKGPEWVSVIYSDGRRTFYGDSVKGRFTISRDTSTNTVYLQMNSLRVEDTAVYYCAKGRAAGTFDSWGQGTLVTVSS
VL: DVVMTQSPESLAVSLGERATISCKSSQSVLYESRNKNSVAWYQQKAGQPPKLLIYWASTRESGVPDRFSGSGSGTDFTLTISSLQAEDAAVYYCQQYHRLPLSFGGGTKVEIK

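Phage display of a naive human antibody library on the peptide gave the parent. The variants were designed computationally from a first round of random CDR variants and then made and measured. Their group label is 14H_GPLM_Gibbs (GPLM: also part of the Gaussian process libraries; Gibbs: Gibbs sampling; a sequence that several methods proposed may carry one label only). The scFvs were displayed on barcoded MATa yeast, the peptide on MATalpha yeast. Binding brings cells together so that they mate, and sequencing counts the barcode pairs among the diploids. Read counts were normalised to the haploid input and turned into Kd by a linear fit to BCL2-family pairs of known affinity, for each replicate. There are six technical replicates.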

The parent's heavy chain CDRs are GFTLNSYGIS, VIYSDGRRTFYGDSVK, GRAAGTFDS; each variant's own CDRs replace them letter for letter. The read-out is the apparent dissociation constant on a log10 scale (nM): the lower, the stronger. The mean shown is taken over the replicates in which the pair was detected. "nd" marks a missing value. The strain was present, yet no cells mated with the target were sequenced in that replicate, which points to weak or no binding.

CDR-H1,CDR-H2,CDR-H3,log10 Kd (nM) by replicate,"log10 Kd (nM), mean",empty controls
GFELNSYGIS,VIYSDGRRTFYADSVK,GNVAGTFDS,0.27 / 0.21 / -0.23 / -0.14 / 0.00 / 0.10,0.04,2 of 18 (2.94)
GFGLNSYGIS,VIYSDGRRTFYGDSVK,GKTAGTFDS,0.91 / 2.15 / 0.51 / 0.57 / 0.57 / 1.35,1.01,0 of 18
GFSLNEYGIS,VIYSDGRRTFYGDSVK,GRNAGTFDT,0.05 / -0.11 / -0.17 / 0.01 / -0.15 / 0.20,-0.03,1 of 18 (2.63)
GFDLNSYGIS,VIYSDGRRTFYHDSVK,GNAAGTFDS,0.27 / 0.84 / 0.41 / 0.60 / 0.57 / 0.40,0.52,1 of 18 (1.96)
GFELNSYGIS,VIYSDGKRTFYGDSVK,GRTAGTFDS,0.54 / 0.24 / 0.42 / 0.15 / 0.37 / 0.47,0.36,0 of 18
GFQLNEYGIS,VIYSDGRRTFYSDSVK,GQAAGTFDS,0.73 / 0.25 / 0.74 / 0.10 / 0.46 / 0.38,0.44,2 of 18 (2.10)
GFDLNSYGIS,VIYSDGRRTFYVDSVK,GRTAGTFDS,-0.09 / -0.27 / -0.07 / 0.16 / -0.16 / -0.01,-0.07,1 of 18 (3.86)
GFDLNTYGIS,VIYSDGRRTFYIDSVK,GQAAGTFDS,-0.09 / -0.15 / -0.43 / -0.29 / -0.42 / -0.26,-0.27,0 of 18
GFHLNSYGIS,VIYSDGRRTFYHDSVK,GEAAGTFDS,1.28 / 0.71 / 0.93 / 1.03 / 0.89 / 1.27,1.02,1 of 18 (2.65)
GFELNSYGIS,VIYSDGRRTFYGDSVK,GGVAGTFDS,0.64 / 0.41 / 0.90 / 1.16 / 0.63 / 0.99,0.79,0 of 18
GFELNSYGIS,VIYSDGRRTFYADSVK,GRQAGTFDT,0.83 / -0.05 / 0.94 / 0.55 / -0.14 / 0.58,0.45,0 of 18
GFDLNSYGIS,VIYSDGRRTFYGDSVK,GHAAGTFDD,0.69 / 0.88 / 0.71 / 0.33 / 0.35 / 0.82,0.63,0 of 18
GFDLNSYGIS,VIYSDGRRTFYGDSVK,GQAAGTFDA,0.33 / 0.32 / 0.02 / -0.25 / -0.13 / 0.15,0.07,0 of 18
KFQLNSYGIS,VIYSDGRRTFYGDSVK,GRTAGTFDS,nd / nd / nd / nd / nd / 1.15,1.15,0 of 18
GFNLNSYGIS,VIYSDGKRTFYGDSVK,GRTAGTFDS,-0.31 / -0.14 / 0.10 / -0.14 / -0.17 / 0.47,-0.03,0 of 18
GFHLNSYGIS,VIYSDGRRTAYGDSVK,GRNAGTFDS,2.52 / 1.95 / 1.48 / 3.90 / nd / 2.50,2.47,0 of 18
GFELNSYGIS,VIYSDGRRTAYSDSVK,GRAAGTFDS,0.43 / 0.08 / 0.75 / -0.06 / 0.47 / 0.25,0.32,0 of 18
GFGLNSYGIS,VIYSDGRRTFYIDSVK,GWTAGTFDS,nd / 1.04 / nd / 1.12 / 0.07 / nd,0.74,1 of 18 (0.42)
GFELNSYGIS,VIYSDGRRTFYTDSVK,GEQAGTFDS,1.40 / 1.26 / 0.88 / 0.84 / nd / 2.32,1.34,0 of 18
GFELNSYGIS,VIYSDGRRTFYGDSVK,GQTAGTFDV,0.14 / 0.18 / 0.88 / 0.43 / -0.07 / -0.33,0.21,1 of 18 (1.27)
HFQLNSYGIS,VIYSDGRRTFYADSVK,GRTAGTFDS,0.81 / 0.63 / 1.85 / 1.10 / 1.33 / 1.35,1.18,0 of 18
GFNLNSYGIS,VIYSDGRRSFYGDSVK,GRQAGTFDS,1.37 / 2.25 / 1.88 / 2.70 / 3.64 / 1.65,2.25,0 of 18
GFVLNSYGIS,VIYSDGRRTFYIDSVK,GEAAGTFDS,nd / nd / nd / 1.87 / nd / nd,1.87,0 of 18
GFTLNSYGIS,VIYSDGKRTFYADQVK,GREAGTFDS,0.32 / 0.15 / 0.51 / 0.78 / 0.37 / 0.67,0.46,0 of 18
GFSLNSYGIS,VIYSDGKRTFYSDSVK,GRTAGTFDS,-0.22 / -0.46 / -0.34 / -0.44 / -0.35 / -0.21,-0.34,0 of 18
KFQLNSYGIS,VIYSDGRRTFYSDSVK,GRTAGTFDS,nd / nd / nd / nd / nd / -1.07,-1.07,0 of 18
GFWLNEYGIS,VIYSDGRRTFYIDSVK,GQAAGTFDS,0.55 / nd / 1.86 / 1.22 / 3.08 / 2.54,1.85,0 of 18
GFNLNTYGIS,VIYSDGRRTFYVDSVK,GQAAGTFDS,1.71 / 1.59 / 1.70 / 0.65 / 1.50 / 1.40,1.42,1 of 18 (2.32)
GFELNSYGIS,VIYSDGRRTFYGDQVK,GKTAGTFDS,0.58 / 0.59 / 0.30 / 0.14 / 0.23 / 0.61,0.41,0 of 18
GFDLNSYGIS,VIYSDGRRTFYKDSVK,GREAGTFDS,1.06 / nd / 1.01 / 1.01 / 2.02 / 1.05,1.23,0 of 18
GFHLNSYGIS,VIYSDGRRTFYADSVK,GREAGTFDS,0.15 / -0.26 / -0.17 / 0.53 / 0.04 / -0.02,0.04,0 of 18
GFVLNEYGIS,VIYSDGRRTFYGDSVK,GEAAGTFDS,0.30 / 1.15 / 0.92 / 0.61 / nd / nd,0.75,0 of 18
GFNLNSYGIS,VIYSDGRRTFYGDSVK,GQAAGTFDT,-0.27 / nd / -0.35 / nd / nd / -0.28,-0.30,0 of 18
GFELNSYGIS,VIYSDGRRTFYGDSVK,GVHAGTFDS,nd / nd / nd / nd / nd / nd,nd,1 of 18 (0.96)
GFTLNSYGIS,VIYSDGKRTFYSDSVK,GQVAGTFDA,0.12 / 0.03 / -0.08 / 0.16 / 0.22 / 0.33,0.13,1 of 18 (3.27)
GFNLNSYGIS,VIYSDGRRTFYGDSVK,GWTAGTFDS,nd / nd / nd / nd / nd / nd,nd,0 of 18
GFGLNSYGIS,VIYSDGRRTFYVDSVK,GQTAGTFDS,nd / nd / nd / nd / nd / 0.34,0.34,1 of 18 (0.76)
GFSLNSYGIS,VIYSDGRRTFYGDSVK,GRMAGTFDT,1.08 / 0.75 / 0.47 / 0.90 / 2.09 / 0.31,0.93,0 of 18
GFDLNSYGIS,VIYSDGRRTFYVDSVK,GHAAGTFDS,0.03 / -0.40 / -0.24 / -0.21 / -0.03 / 0.02,-0.14,0 of 18
GFSLNTYGIS,VIYSDGRRTFYIDSVK,GNAAGTFDS,0.28 / 0.16 / 0.34 / 0.07 / 0.24 / 0.29,0.23,0 of 18
GFSLNSYGIS,VIYSDGRRTFYTDSVK,GKQAGTFDS,1.70 / 1.21 / 0.98 / 1.11 / 1.39 / 0.95,1.22,0 of 18
GFTLNSYGIS,VIYADGRRTFYGDSVK,GRVAGTFDV,nd / nd / 0.38 / 0.19 / -0.25 / -0.04,0.07,0 of 18
GFELNSYGIS,VIYSDGRRTFYIDSVK,GRMAGTFDS,2.11 / 1.76 / 1.15 / 1.70 / 1.89 / nd,1.72,1 of 18 (1.87)
GFELNSYGIS,VIYSDGKRTFYGDSVK,GRVAGTFDS,-0.10 / -0.36 / -0.53 / 0.21 / -0.24 / -0.47,-0.25,0 of 18

Excerpt, the final 6 entries:

{"CDR-H1": "GFDLNSYGIS", "CDR-H2": "VIYSDGRRTFYVDSVK", "CDR-H3": "GHAAGTFDS", "log10 Kd (nM) by replicate": "0.03 / -0.40 / -0.24 / -0.21 / -0.03 / 0.02", "log10 Kd (nM), mean": "-0.14", "empty controls": "0 of 18"}
{"CDR-H1": "GFSLNTYGIS", "CDR-H2": "VIYSDGRRTFYIDSVK", "CDR-H3": "GNAAGTFDS", "log10 Kd (nM) by replicate": "0.28 / 0.16 / 0.34 / 0.07 / 0.24 / 0.29", "log10 Kd (nM), mean": "0.23", "empty controls": "0 of 18"}
{"CDR-H1": "GFSLNSYGIS", "CDR-H2": "VIYSDGRRTFYTDSVK", "CDR-H3": "GKQAGTFDS", "log10 Kd (nM) by replicate": "1.70 / 1.21 / 0.98 / 1.11 / 1.39 / 0.95", "log10 Kd (nM), mean": "1.22", "empty controls": "0 of 18"}
{"CDR-H1": "GFTLNSYGIS", "CDR-H2": "VIYADGRRTFYGDSVK", "CDR-H3": "GRVAGTFDV", "log10 Kd (nM) by replicate": "nd / nd / 0.38 / 0.19 / -0.25 / -0.04", "log10 Kd (nM), mean": "0.07", "empty controls": "0 of 18"}
{"CDR-H1": "GFELNSYGIS", "CDR-H2": "VIYSDGRRTFYIDSVK", "CDR-H3": "GRMAGTFDS", "log10 Kd (nM) by replicate": "2.11 / 1.76 / 1.15 / 1.70 / 1.89 / nd", "log10 Kd (nM), mean": "1.72", "empty controls": "1 of 18 (1.87)"}
{"CDR-H1": "GFELNSYGIS", "CDR-H2": "VIYSDGKRTFYGDSVK", "CDR-H3": "GRVAGTFDS", "log10 Kd (nM) by replicate": "-0.10 / -0.36 / -0.53 / 0.21 / -0.24 / -0.47", "log10 Kd (nM), mean": "-0.25", "empty controls": "0 of 18"}

The range of this assay differs from that of the first round, and the authors advise against merging the two. The parent sequence was in this pool as ten entries: three were never detected, three once, and four in most replicates, with averages from 0.34 to 2.37. Three control strains display no target. For all heavy chain designs, 1% of the pairings with them gave a signal, with a median of 2.08 and one signal in twenty below 0.84, so weak values seen in few replicates may be background. The control count says in how many pairings with the empty strains this scFv gave a signal, with their mean in brackets. The authors averaged sequences with at least three values out of six and counted those with two or fewer as poor binders.

The measurements come from Li et al. 2023 (doi:10.1038/s41467-023-39022-2) through the FLAb antibody collection.